Data published in patent publication EP1289507B1, “USE OF AN ALDOSTERONE ANTAGONIST FOR THE TREATMENT OR PROPHYLAXIS OF ALDOSTERONE-MEDIATED PATHOGENIC EFFECTS” (priority 2000, dated 2001).

Tested on: captopril-treated, saline-drinking SHRSP
Experiment: Protocol 2: Angiotensin II-induced renal damage in captopril-treated saline-drinking SHRSP
Assay type: in vivo, male SHRSP/A3N
Procedure: Animals. Studies were conducted in accordance with institutional guidelines using male SHRSP/A3N (generations F-75 to F-78), n = 37, from our local colony. These animals were bred from NIH stock, derived from the SHRSP/A3N substrain described originally by Okamoto and coworkers (Okamoto K et al. Circ. Res. 34 and 35 (suppl I):I-143-I-153.). All animals were housed in a room maintained on a 12:12-h light:dark-cycle and an ambient temperature of 22 ± 1°C in the Animal Care Facility at New York Medical College. Rats were weaned at 4 weeks of age and allowed free access to Purina Lab Chow 5001 (Ralston Purina, St. Louis, MO) and tap water until the initiation of experimental protocols.
SHRSP were placed on Stroke-Prone Rodent Diet (#39-288, Zeigler Bros Inc., Gardners, PA) and 1% NaCl drinking solution ad libitum starting at 8.3 weeks of age. […] Systolic blood pressure and heart rate were measured each week. […]
Assays and Analyses. Systolic blood pressure and heart rate of awake animals were measured by tail-cuff plethysmography using a Natsume KN-210 manometer and tachometer (Peninsula Laboratories Inc., Belmont, CA). […] Urinary protein concentration was determined by the sulfosalicylic acid turbidity method. Plasma aldosterone was measured by radioimmunoassay using ^125I-aldosterone as a tracer (Coat-a Count Aldosterone, Diagnostic Products Co., Los Angeles, CA). […]

C[C@H](CS)C(=O)N1CCC[C@H]1C(=O)O [Captopril, captopril, reference compound]
Preterminal systolic blood pressure (captopril plus vehicle, or captopril plus angiotensin II plus eplerenone): 224 ± 6 mm Hg
proteinuria (urinary protein excretion) (end of study (2 weeks), captopril 50 mg/kg/d plus vehicle, or captopril plus angiotensin II 25 ng/min plus eplerenone 100 mg/kg/d): 14 ± 1 mg/day
